Series [1] can be described thus: pKa value was determined.
Another series deals with Electrophorus electricus. Briefly: In vitro reactivating potency against TEPP-inhibited acetylcholinesterase (AcChE).

The term pKa denotes the pH at which an ionisable group is half protonated. Read a high pKa as a group that holds its proton tightly. Take `C=CCn1cc(/C=N/O)[n+](C)c1.[I-]`: in series [1], the pKa worked out at 9.56. For the same compound, in the series on Electrophorus electricus, the Activity was determined as 0.0571 M.
In the case of `CCOc1ccc(-n2cc(/C=N/O)[n+](C)c2)cc1.[I-]`, the pKa in series [1] is 9.44.
In the case of `CCn1cc(/C=N/O)[n+](C)c1SC.[I-]`, in series [1], the pKa was found to be 9.56. The compound also yielded an Activity in the series on Electrophorus electricus of 0.0176 M.
For `CCOc1ccc(-n2cc(/C=N/O)[n+](C)c2SC)cc1.[I-]`, in that order: 9.12 and 0.0235 M.
In series [1], `Cc1ccc(-n2cc(/C=N/O)[n+](C)c2)cc1.[I-]` came in with a pKa of 9.4. Also, in the series with Electrophorus electricus, the Activity is 0.0453 M.
Compound `CSc1n(-c2ccccc2)cc(/C=N/O)[n+]1C.[I-]` registered a pKa in series [1] of 9.3.
In series [1], `CSc1n(-c2ccc(C)cc2)cc(/C=N/O)[n+]1C.[I-]` showed a pKa of 9.04. Also, the Activity with Electrophorus electricus stood at 0.0235 M.
In turn, `C=CCn1cc(/C=N\O)[n+](C)c1SC.[I-]` came in with a pKa in series [1] of 9.42. The same compound came in with an Activity in the series with Electrophorus electricus of 0.0464 M.
As for `C=CCn1cc(/C=N/O)[n+](C)c1SC.[I-]`, the pKa in series [1] turned out to be 9.24.
For the compound `C[n+]1ccccc1C=NO.[I-]`, the Activity in the series with Electrophorus electricus was found to be 0.1 M.
Turning to `COc1ccc(-n2cc(/C=N/O)[n+](C)c2SC)cc1.[I-]`, the pKa in series [1] was 9.38.
`CCn1cc(/C=N/O)[n+](C)c1.[I-]` had a pKa in series [1] of 9.57. Moreover, in the series on Electrophorus electricus, the Activity was determined as 0.0305 M.
Consider `COc1ccc(-n2cc(/C=N/O)[n+](C)c2)cc1.[I-]`, for which, in series [1], the pKa was found to be 9.43.
The compound `C[n+]1cn(-c2ccccc2)cc1/C=N/O.[I-]` gave a pKa in series [1] of 9.49. Further, the Activity with Electrophorus electricus came to 0.0335 M.

The values above are taken from ChEMBL document CHEMBL1123089, “Reactivators of organophosphorus-inhibited acetylcholinesterase. 1. Imidazole oxime derivatives” (1985).
